{"source": "patent US11141411B2", "about": "“Methods of treating neurological, metabolic, and other disorders using enantiopure deuterium-enriched pioglitazone” (Poxel SA, priority 2014, dated 2021)", "key": {"[1]": {"details": "mouse plasma; average of constants fitted for h-S and h-R, fixed in d-rac analysis"}, "[2]": {"details": "for effect of deuterium incorporation on half-life, deuterated vs. protonated enantiomer: plasma stability study, species not specified in the sentence (human and mouse studied)"}, "[3]": {"test_system": "db/db mice", "test": "db/db mouse model of type II diabetes, 10-day daily oral dosing", "details": "daily oral gavage 10 days, d-R-pio 20 mg/kg, h-rac-pio 30 mg/kg; for decrease of inflammatory biomarker serum amyloid A: vs. vehicle; for non-essential fatty acids / serum triglycerides: d-S-pio 20 mg/kg, terminal blood"}, "[4]": {"details": "human plasma, average of constants fitted for h-S and h-R, fixed in d-rac analysis"}}, "note": "Read-outs that look alike come from different tables or passages of the source.", "data": [{"smiles": "[2H]C1(Cc2ccc(OCCc3ccc(CC)cn3)cc2)SC(=O)NC1=O", "note": "(racemic) [d-rac-pio]", "values": [{"measurement": "k RS* (enantiomerization h-R-pio to h-S-pio)", "setting": "[1]", "result": 0.743, "unit": "h⁻¹"}, {"measurement": "k SR* (enantiomerization h-S-pio to h-R-pio)", "setting": "[1]", "result": 0.924, "unit": "h⁻¹"}, {"measurement": "k RS* (enantiomerization h-R-pio to h-S-pio)", "setting": "[2]; [4]", "result": 0.440, "unit": "h⁻¹"}, {"measurement": "k SR* (enantiomerization h-S-pio to h-R-pio)", "setting": "[2]; [4]", "result": 0.433, "unit": "h⁻¹"}]}, {"smiles": "CCc1ccc(CCOc2ccc(CC3SC(=O)NC3=O)cc2)nc1", "note": "(racemic) [h-rac-pio, rac-5-({p-[2-(5-Ethyl-2-pyridyl)ethoxy]phenyl}methyl)-1,3-thiazolidine-2,4-dione, reference compound]", "values": [{"measurement": "decrease of inflammatory biomarker serum amyloid A", "setting": "[3]", "result": "statistically significant"}, {"measurement": "non-essential fatty acids", "setting": "[3]", "result": "a similar trend was observed"}, {"measurement": "serum triglycerides", "setting": "[3]", "result": "The same was observed"}]}, {"smiles": "[2H][C@]1(Cc2ccc(OCCc3ccc(CC)cn3)cc2)SC(=O)NC1=O", "note": "[d-R-pio, (R)-5-({p-[2-(5-ethyl-2-pyridyl)ethoxy]phenyl}methyl)-(5-^2H)-1,3-thiazolidine-2,4-dione]", "values": [{"measurement": "decrease of inflammatory biomarker serum amyloid A", "setting": "[3]", "result": "statistically significant"}, {"measurement": "non-essential fatty acids", "setting": "[3]", "result": "a similar trend was observed"}, {"measurement": "serum triglycerides", "setting": "[3]", "result": "The same was observed"}, {"measurement": "effect of deuterium incorporation on half-life, deuterated vs. protonated enantiomer", "setting": "[2]", "result": "approximately two-fold"}]}, {"smiles": "[2H][C@@]1(Cc2ccc(OCCc3ccc(CC)cn3)cc2)SC(=O)NC1=O", "note": "[d-S-pio, (S)-5-({p-[2-(5-Ethyl-2-pyridyl)ethoxy]phenyl}methyl)-(5-^2H)-1,3-thiazolidine-2,4-dione]", "values": [{"measurement": "non-essential fatty acids", "setting": "[3]", "result": "a similar trend was observed"}, {"measurement": "serum triglycerides", "setting": "[3]", "result": "The same was observed"}, {"measurement": "effect of deuterium incorporation on half-life, deuterated vs. protonated enantiomer", "setting": "[2]", "result": "approximately the same as the half-life for h-S-pio"}]}]}
